Data set [1] in a line: Test 2: Effects of antioxidants on cilastatin-containing liquid formulation (absorbance, HPLC content). It is filed as physicochemical. As to conditions: 45° C. for 18 days, headspace purged with nitrogen.
The nature of data set [2]: Test 3: Effects of additives (absorbance, HPLC content). It is filed as physicochemical. Conditions: 45° C. for four weeks, headspace purged with nitrogen.
For data set [3] the following is noted: heated sample: sealed glass vial, 80° C. for 4 hours; HPLC. As to the method:
Then, the glass vial was sealed and heated at 80° C. for 4 hours (to obtain a nitrogen-purged, heated sample). The aqueous solution before heating and the two samples prepared above were measured for absorbance, which served as an index for the degree of coloration, and also analyzed by HPLC to confirm the content of cilastatin.
The analysis conditions are detailed below.
Absorbance Measurement Conditions:
Equipment: Hitachi U-3900
Optical path length: 1 cm
HPLC Analysis Conditions:
Detector: Ultraviolet absorptiometer (measurement wavelength: 216 nm)
Column: 1.7 μm octadecylsilylated silica gel column (Acquity BEH C18, produced by Waters), 2.1 mm I.D., 50 mm long
Column temperature: 40° C.
Mobile phase: 25 mM phosphate buffer containing 9.5% acetonitrile (pH 4.25)
Amount of sample injected: 5 μL (prepared to 100 μg/mL)
Retention time: Cilastatin (about 2.6 min.)

The nature of data set [4]: Test 4: Effects of chelating agents (absorbance, HPLC content). Conditions: 45° C. for four weeks, headspace purged with nitrogen.

Consider `CC1(C)C[C@@H]1C(=O)N/C(=C\CCCCSC[C@H](N)C(=O)O)C(=O)O` [cilastatin sodium, (Z)-7-[[(R)-2-amino-2-carboxyethyl]thio]-2-[[[(S)-2,2-dimethylcyclopropyl]carbonyl]amino]-2-heptenoic acid], for which the “Cilastatin content w/N2-purge” value in data set [1], in data set [2] and in data set [4] was 98.36% throughout. This molecule had a Cilastatin content in data set [3] of 98.85%.
